Measured values as given in patent US20130102662A1, “USE OF INDUCIBLE NITRIC OXIDE SYNTHASE INHIBITORS AND NITRIC OXIDE […] INHIBIT POST-TRAUMATIC IMMUNODEPRESSION” (University of Pittsburgh - of the Commonwealth System of …, priority 2011, published 2013).

Tested on: splenocytes
Conditions: C57BL/6 mice, pseudofracture trauma, 1400 W 5 mg/kg intraperitoneally, 48 hours, concanavalin A 2.5 μg/ml; vs baseline controls (FIG. 3)

SMILES: CC(=N)NCc1cccc(CN)c1 [1400 W, N-(3-(Aminomethyl)benzyl)acetamidine]
- Concanavalin A stimulated splenocyte proliferative responses following trauma: not significantly reduced
